Measurements: PubChem BioAssay (NCI)
The entries are a selection whose mix differs from that of the whole data set.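 Testing used 96-well plates and a 48-hour single-concentration exposure. Example: -40 means 40% of the starting cells died.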 The source made the active and inactive calls. The calls were made as follows: active = growth percent below 10; inactive = the rest.

Columns and labels:
Assay in all cases: NCI-60 one-dose screen, 48 h (100 = growth as untreated, 0 = no growth, -100 = all killed)
Details in all cases: 10 µM unless noted
[1] = test system: EKVX NSCLC
[2] = test system: SN12C renal
[3] = test system: UO-31 renal
[4] = test system: TK-10 renal
[5] = test system: ACHN renal
[6] = test system: CAKI-1 renal
[7] = test system: A498 renal
[8] = test system: HL-60(TB) leukemia
[9] = test system: CCRF-CEM leukemia
[10] = test system: MOLT-4 leukemia
[11] = test system: SR leukemia
[12] = test system: RPMI-8226 leukemia
[13] = test system: OVCAR-8 ovarian
[14] = test system: OVCAR-5 ovarian
[15] = test system: OVCAR-4 ovarian
[16] = test system: SK-OV-3 ovarian
[17] = test system: IGROV1 ovarian
[18] = test system: OVCAR-3 ovarian
[19] = test system: HS 578T breast
[20] = test system: SK-MEL-2 melanoma

Measured: growth

O=C(OC1CN2CCC1CC2)c1ccccc1 (stereo not given)
inactive: [1] 98.5% | [2] 101% | [3] 88.9% | [4] 107% | [5] 110% | [6] 90.4% | [7] 92.8% | [8] 106% | [9] 90% | [10] 103% | [11] 104% | [12] 101% | [13] 97.5% | [14] 96.7% | [15] 112% | [16] 115% | [17] 121% | [18] 112% | [19] 101%

O=C(c1ccc([N+](=O)[O-])cc1)N(CCCl)CCCl
inactive: [20] 116% | [2] 104% | [3] 98.1% | [4] 97.1% | [5] 104% | [6] 90% | [8] 103% | [9] 101% | [10] 96.3% | [11] 113% | [12] 104% | [13] 80.5% | [14] 104% | [15] 102% | [16] 101% | [17] 103% | [18] 108% | [19] 123%

ClCC1CS1 (stereo not given)
inactive: [20] 104% | [2] 108% | [3] 84.4% | [4] 91.1% | [5] 110% | [6] 99.6% | [7] 117% | [8] 99% | [10] 91.1% | [11] 83.2% | [12] 98.6% | [13] 103% | [14] 111% | [15] 101% | [16] 103% | [17] 101% | [18] 108% | [19] 119%

COc1cc(I)ccc1[As](=O)(O)O
inactive: [1] 112% | [2] 97% | [3] 101% | [4] 127% | [5] 101% | [7] 96.8% | [8] 81.4% | [9] 87.3% | [10] 95.5% | [11] 109% | [13] 97.6% | [14] 153% | [15] 106% | [16] 109% | [19] 144%

CC(/C=N/N=C(\N)N[N+](=O)[O-])=N\N=C(/N)N[N+](=O)[O-]
inactive: [20] 152% | [2] 101% | [3] 97.9% | [4] 119% | [5] 96% | [6] 96.7% | [7] 102% | [8] 90.2% | [10] 113% | [11] 128% | [12] 95.6% | [13] 104% | [14] 100% | [15] 99.5% | [16] 109% | [17] 113% | [18] 116%

CCCCOP(N)(=O)OCCCC
inactive: [20] 96.8% | [2] 99.5% | [3] 81.6% | [4] 95.1% | [5] 91.6% | [6] 101% | [7] 105% | [8] 102% | [10] 100% | [11] 99.5% | [12] 106% | [13] 99% | [14] 107% | [15] 110% | [16] 108% | [17] 105% | [18] 112%

N/C(=N/[N+](=O)[O-])N(CCBr)N=O
inactive: [20] 86% | [2] 105% | [3] 87% | [4] 89.6% | [5] 97.5% | [6] 84% | [7] 108% | [8] 94.2% | [10] 90.5% | [11] 81.9% | [12] 104% | [13] 97.4% | [14] 105% | [15] 120% | [16] 98.9% | [17] 100% | [18] 97.3% | [19] 107%

NC(=O)Nc1ccc([As](=O)(O)O)cc1
inactive: [1] 98.7% | [2] 100% | [3] 87.7% | [4] 98.4% | [5] 115% | [6] 95.1% | [7] 99.7% | [8] 73.7% | [9] 106% | [10] 101% | [11] 88.6% | [12] 104% | [13] 101% | [14] 109% | [15] 103% | [16] 112% | [17] 119% | [18] 117% | [19] 115%

O=P1(Nc2ncccn2)OC(CCl)=NC1c1ccc(C2N=C(CCl)OP2(=O)Nc2ncccn2)cc1 (stereo not given)
inactive: [4] 97.7% | [8] 93.1%

O=[As](O)(O)c1cccnc1
inactive: [1] 114% | [2] 104% | [3] 90.7% | [4] 118% | [5] 99.4% | [6] 77.5% | [7] 97.9% | [8] 106% | [9] 90.2% | [10] 108% | [11] 127% | [13] 108% | [14] 115% | [15] 108% | [16] 104% | [18] 104% | [19] 125%
